{"source": "patent US20050032724A1", "about": "(priority 2001, published 2005)", "tested_on": "KB 3-1 (MDR1^+++, CYP3A5) cells", "conditions": "3 days", "description": "The human epithelial cervical cancer cell line KB 3-1 with two subclones (KB 3-1 (MDR1^+++) and KB 3-1 (MDR1^+++, CYP3A5)) and the bladder cancer cell line RT112, also with subclone (RT112 (MDR1^+, UGT1A1)), were cultured in Dulbecco's Modified Eagle Medium (DMEM) including 3.7 g/l NaHCO3, 4.5 g/l D-Glucose, 1.028 g/l N-Acetyl-L-Alanyl-L-glutamine and supplemented with 10% fetal bovine, 1 mM Na-pyruvate and 1% non-essential amino acids. The human colon cancer cell line LS174T was cultured in Dulbecco's modified Eagle medium containing L-glutamine, pyridoxine hydrochloride and 25 mM Hepes buffer without phenol red, supplemented with 10% fetal bovine, 1 mM Na-pyruvate and 1% non-essential amino acids. All cells were incubated at 37° C. with 5% CO2 in a humidified atmosphere.\nLower concentrated dilutions were prepared in PBS and cell culture medium.\nCells were seeded in 96-well culture plates 24 h prior to treatment. […]\nA commercially available MTS assay system (Promega, Madison, USA) was used to determine growth inhibition and cell death according to the instructions of the manufacturer. […] The plate was incubated for at least 45 min at 37° C. in a humidified 5% CO2 atmosphere and the absorbance at 492 nm was measured. The absorbance values of untreated control cells on each plate were set as 100% growth and used to calculate the remaining growth of drug treated cells. […]", "data": [{"substance": "irinotecan [CPT-11]", "values": [{"measurement": "IC50 with R-Verapamil", "setting": "with R-Verapamil 10 μg/ml", "value": 25, "unit": "µg/mL"}, {"measurement": "IC50 (50% inhibition of cell growth)", "setting": "without R-Verapamil", "value": 200, "unit": "µg/mL"}]}]}
